{"source": "patent US12448518B2", "about": "“Phthalocyanine dye compounds, conjugates and methods of use thereof” (Rakuten Medical, Inc., priority 2020, dated 2025)", "assay": "Thermodynamic solubility in pH 7.4 DPBS, UV quantification", "format": "physicochemical", "conditions": "powder at 1 mg/mL, 24 hours, room temperature (25° C.)", "protocol": "A working 1 mM stock solution of the test compound in DMSO was prepared from a 10 mM DMSO stock solution. A spectrum scan from 220 nm to 1000 nm of this working solution was performed in a 96-well UV plate to identify the wavelength maxima. […] The selected stock solution was serially diluted in DMSO to confirm linearity and generate a seven to eight-point calibration curve. Of note, only linear points were considered in the curve.\nThe resulting solution was placed on a RotoSpin™ shaker at 50 rpm for 24 hours at room temperature (25° C.). The solution was then filtered using a 0.45 μm PVDF filter to remove any insoluble fraction of the compound. A 150 μL aliquot of the filtrate was taken for quantification using UV spectroscopy (POLARstar Omega BMG Plate Reader). The optical densities of the standard solutions and the test sample were acquired at the same wavelength maxima. The test sample concentration was calculated from its optical density using the linearity/calibration curve."}
{"substance": "Sodium 2-((19-((dimethyl(3-(tris(3-sulfonatopropyl)ammonio)propyl)silyl)oxy)-19H-6,11-(azeno)-17,21-(azeno[3]episoindoloazeno)benzo[7,8][1,3,5,10]tetraaza[2]silacycloundecino[4,3-a:11,1-a′]diisoindol-19-yl)oxy)-2-methyl-6,6-bis(3-sulfonatopropyl)-9,12-dioxa-6-aza-2-silapentadecan-6-ium-15-oate [Example 21]", "values": [{"measurement": "Solubility* (thermodynamic)", "result": "C (>100 μg/mL)"}]}
